Our source for the IC50 values is ChEMBL document CHEMBL5705907 (BMC Rheumatol, 2018).

The chains behind the UniProt entries cited, without tags or fusion partners. Where a name states a change or a piece, a line headed by the entry shows the natural chain unless it says otherwise.
UniProt P52332: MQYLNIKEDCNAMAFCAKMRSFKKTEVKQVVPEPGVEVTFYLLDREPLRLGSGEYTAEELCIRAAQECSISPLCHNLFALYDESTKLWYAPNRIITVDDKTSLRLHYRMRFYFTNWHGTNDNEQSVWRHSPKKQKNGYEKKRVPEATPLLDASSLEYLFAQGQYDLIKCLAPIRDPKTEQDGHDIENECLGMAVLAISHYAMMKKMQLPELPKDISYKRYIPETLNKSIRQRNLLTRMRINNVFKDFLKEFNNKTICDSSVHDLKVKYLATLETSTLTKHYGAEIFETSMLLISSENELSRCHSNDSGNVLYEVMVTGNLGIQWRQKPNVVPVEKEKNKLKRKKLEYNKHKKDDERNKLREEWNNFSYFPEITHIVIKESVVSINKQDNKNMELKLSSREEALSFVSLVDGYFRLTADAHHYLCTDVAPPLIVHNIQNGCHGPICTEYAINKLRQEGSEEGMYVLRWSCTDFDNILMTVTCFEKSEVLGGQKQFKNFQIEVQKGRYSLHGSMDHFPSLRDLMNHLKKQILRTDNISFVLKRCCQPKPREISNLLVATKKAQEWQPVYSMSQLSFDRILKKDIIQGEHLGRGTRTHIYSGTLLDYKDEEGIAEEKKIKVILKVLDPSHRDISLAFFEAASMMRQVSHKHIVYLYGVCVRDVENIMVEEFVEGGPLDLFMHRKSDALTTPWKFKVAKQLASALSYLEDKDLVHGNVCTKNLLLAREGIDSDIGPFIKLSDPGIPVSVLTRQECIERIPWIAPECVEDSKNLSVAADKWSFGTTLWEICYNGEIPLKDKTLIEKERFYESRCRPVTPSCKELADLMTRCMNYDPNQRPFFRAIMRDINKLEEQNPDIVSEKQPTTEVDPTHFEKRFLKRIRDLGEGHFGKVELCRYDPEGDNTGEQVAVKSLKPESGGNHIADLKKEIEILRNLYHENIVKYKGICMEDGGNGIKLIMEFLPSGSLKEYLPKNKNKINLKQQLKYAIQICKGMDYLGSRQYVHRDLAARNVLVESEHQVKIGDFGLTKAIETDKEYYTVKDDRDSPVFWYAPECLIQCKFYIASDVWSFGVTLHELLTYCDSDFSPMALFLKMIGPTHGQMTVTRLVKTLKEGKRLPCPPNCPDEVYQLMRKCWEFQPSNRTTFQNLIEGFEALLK

The test has as its target Tyrosine-protein kinase JAK1 (Mus musculus, UniProt P52332).

On to `CC[C@@H]1CN(C(=O)NCC(F)(F)F)C[C@@H]1c1cnc2cnc3[nH]ccc3n12` [UPADACITINIB], for which the midpoint of inhibition, the IC50, lay at 14 nM.
